Among the targets are PIK3CD (Human) (UniProt O00329); PIK3CA (human) (UniProt P42336); PIK3CB (Human) (UniProt P42338); PIK3CG (human) (UniProt P48736).
Common to all, as to test: Enzyme Assay

Protein sequences, listed by entry. Tags and fused reporters are not part of them. Lines headed by an entry give the natural chain unless they say otherwise; changes in a name come on top.
UniProt O00329: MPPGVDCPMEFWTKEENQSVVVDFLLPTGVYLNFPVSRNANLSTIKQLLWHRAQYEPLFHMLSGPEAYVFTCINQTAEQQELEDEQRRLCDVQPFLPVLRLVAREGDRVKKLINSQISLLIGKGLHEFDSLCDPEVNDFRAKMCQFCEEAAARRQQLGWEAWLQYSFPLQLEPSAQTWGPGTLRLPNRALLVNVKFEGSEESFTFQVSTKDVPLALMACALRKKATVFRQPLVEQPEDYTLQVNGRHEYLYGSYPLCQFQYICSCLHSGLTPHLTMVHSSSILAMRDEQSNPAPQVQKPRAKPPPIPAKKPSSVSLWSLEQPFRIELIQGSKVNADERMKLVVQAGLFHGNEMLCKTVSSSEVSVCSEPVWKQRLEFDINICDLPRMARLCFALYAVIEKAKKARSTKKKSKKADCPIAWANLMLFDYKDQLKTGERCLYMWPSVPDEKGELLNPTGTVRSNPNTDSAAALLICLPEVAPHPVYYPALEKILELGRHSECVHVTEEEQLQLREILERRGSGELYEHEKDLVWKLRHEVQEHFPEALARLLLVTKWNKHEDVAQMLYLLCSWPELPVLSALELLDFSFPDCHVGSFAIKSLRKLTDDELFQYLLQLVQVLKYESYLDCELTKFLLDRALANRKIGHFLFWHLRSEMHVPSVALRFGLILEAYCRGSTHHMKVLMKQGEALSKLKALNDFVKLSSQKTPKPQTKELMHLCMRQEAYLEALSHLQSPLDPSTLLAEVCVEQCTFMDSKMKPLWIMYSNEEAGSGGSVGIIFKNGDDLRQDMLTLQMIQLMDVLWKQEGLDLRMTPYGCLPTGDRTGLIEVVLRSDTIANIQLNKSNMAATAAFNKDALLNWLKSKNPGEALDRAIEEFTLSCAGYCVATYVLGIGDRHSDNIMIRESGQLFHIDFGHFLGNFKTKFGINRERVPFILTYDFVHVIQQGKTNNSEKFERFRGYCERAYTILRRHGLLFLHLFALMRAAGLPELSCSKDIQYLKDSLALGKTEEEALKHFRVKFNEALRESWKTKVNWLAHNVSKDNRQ
UniProt P42336, whole entry, looked up: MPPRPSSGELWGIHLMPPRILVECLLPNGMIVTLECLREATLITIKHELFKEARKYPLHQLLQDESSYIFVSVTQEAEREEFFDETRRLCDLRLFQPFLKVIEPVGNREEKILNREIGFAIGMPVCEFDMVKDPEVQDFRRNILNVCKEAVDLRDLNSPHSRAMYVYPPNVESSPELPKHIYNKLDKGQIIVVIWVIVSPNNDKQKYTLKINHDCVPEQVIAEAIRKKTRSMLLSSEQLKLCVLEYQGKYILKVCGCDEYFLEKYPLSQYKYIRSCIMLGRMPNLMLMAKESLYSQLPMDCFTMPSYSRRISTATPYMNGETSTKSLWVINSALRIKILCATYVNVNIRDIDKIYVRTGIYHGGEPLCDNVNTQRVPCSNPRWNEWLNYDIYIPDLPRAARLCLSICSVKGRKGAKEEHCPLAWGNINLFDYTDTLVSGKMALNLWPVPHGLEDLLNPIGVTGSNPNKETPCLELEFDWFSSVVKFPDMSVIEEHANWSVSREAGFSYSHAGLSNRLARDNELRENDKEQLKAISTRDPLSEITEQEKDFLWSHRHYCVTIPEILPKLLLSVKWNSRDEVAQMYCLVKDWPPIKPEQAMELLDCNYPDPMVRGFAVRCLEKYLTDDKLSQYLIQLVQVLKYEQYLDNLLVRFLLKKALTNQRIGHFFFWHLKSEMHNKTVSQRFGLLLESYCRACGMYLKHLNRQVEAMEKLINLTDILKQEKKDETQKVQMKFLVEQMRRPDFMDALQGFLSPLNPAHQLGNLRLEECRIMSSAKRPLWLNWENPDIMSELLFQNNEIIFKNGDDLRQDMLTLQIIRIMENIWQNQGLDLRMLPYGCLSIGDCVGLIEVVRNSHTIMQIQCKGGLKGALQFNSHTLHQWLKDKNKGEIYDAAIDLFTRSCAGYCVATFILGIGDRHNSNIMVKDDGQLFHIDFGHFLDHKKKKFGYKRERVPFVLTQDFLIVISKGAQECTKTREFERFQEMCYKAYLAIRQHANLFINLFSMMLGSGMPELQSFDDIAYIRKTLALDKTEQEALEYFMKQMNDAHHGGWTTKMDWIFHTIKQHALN
UniProt P42338: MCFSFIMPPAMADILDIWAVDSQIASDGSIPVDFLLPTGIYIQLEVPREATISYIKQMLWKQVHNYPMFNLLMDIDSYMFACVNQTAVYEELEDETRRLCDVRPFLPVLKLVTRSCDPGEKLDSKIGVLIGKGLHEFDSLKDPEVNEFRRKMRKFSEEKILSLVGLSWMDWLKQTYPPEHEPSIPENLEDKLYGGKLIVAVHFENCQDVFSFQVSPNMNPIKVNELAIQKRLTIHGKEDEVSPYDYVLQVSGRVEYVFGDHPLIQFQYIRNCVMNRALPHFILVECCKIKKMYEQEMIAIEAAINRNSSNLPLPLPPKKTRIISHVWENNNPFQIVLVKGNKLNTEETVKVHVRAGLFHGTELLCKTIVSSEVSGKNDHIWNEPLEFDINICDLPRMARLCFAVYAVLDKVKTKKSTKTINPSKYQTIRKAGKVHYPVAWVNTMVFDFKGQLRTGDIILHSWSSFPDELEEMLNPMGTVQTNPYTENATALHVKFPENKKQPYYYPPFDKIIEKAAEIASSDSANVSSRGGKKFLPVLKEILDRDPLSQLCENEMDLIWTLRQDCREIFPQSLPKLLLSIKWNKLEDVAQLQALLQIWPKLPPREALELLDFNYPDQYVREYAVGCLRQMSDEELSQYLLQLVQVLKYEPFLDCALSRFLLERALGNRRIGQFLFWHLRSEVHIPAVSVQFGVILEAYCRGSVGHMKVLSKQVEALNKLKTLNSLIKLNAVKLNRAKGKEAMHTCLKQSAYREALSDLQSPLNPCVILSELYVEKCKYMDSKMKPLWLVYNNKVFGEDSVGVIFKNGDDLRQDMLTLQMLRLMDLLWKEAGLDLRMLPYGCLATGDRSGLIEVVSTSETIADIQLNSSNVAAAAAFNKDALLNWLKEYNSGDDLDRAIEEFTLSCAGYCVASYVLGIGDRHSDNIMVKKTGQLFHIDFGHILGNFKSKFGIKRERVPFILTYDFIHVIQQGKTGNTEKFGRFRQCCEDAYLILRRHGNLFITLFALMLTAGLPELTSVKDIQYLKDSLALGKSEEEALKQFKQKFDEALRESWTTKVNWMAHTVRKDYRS
UniProt P48736: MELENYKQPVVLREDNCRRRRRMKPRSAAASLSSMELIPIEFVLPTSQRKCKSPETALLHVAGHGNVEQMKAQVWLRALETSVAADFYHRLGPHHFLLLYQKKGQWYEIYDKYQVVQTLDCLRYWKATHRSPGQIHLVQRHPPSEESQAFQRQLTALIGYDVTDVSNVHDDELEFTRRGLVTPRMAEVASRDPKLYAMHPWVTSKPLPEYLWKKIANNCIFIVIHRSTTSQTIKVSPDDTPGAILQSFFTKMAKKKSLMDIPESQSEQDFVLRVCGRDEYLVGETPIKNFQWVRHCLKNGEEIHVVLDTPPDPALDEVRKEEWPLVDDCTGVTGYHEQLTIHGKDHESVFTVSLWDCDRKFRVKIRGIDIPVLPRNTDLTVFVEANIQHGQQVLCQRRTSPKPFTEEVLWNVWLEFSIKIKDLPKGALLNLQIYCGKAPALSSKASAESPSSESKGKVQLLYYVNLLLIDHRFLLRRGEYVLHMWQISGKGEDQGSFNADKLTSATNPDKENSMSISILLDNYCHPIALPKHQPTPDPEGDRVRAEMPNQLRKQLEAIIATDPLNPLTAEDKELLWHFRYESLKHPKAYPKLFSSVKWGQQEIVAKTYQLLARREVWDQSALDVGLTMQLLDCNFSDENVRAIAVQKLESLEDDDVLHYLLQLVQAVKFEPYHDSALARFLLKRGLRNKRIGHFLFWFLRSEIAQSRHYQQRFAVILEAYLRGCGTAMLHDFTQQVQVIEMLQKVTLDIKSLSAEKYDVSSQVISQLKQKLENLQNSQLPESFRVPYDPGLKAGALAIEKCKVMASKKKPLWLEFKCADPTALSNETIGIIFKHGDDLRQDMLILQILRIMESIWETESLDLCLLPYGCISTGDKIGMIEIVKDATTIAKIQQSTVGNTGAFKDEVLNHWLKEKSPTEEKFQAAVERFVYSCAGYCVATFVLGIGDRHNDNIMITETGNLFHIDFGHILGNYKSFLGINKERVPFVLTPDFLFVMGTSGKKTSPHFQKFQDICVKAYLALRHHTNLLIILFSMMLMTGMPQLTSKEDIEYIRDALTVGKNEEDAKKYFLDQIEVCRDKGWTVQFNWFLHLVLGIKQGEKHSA

The results in this text go back to the Kinase Knowledgebase extract (Sharma et al. 2016).

The IC50 is the concentration that gives 50% inhibition.

SMILES strings stand for the structures.

For the compound `NC(=O)[C@H]1CCCN1C(=O)Nc1nc2ccc(-c3cnc(N)c(C(F)(F)F)c3)cc2s1`, the IC50 on PIK3CD (Human) stood at 980 nM; against PIK3CA (human) it was 75 nM; against PIK3CB (Human) it was 5.5 µM; on PIK3CG (human) it was 2400 nM.
